How the values were obtained:
[1] = target: T1, 5-hydroxytryptamine receptor 1F (Rattus norvegicus, UniProt P30940)
T1 sequence (P30940 whole entry): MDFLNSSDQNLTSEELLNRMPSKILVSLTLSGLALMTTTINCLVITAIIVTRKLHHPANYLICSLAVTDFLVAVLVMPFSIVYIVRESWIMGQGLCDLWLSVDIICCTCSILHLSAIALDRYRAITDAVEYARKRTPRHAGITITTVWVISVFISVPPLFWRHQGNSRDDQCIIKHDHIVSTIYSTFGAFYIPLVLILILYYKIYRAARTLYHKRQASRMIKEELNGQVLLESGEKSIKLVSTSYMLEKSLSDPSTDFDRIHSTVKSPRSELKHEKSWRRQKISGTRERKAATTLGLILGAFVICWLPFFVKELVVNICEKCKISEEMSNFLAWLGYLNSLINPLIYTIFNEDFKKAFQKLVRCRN

Sequences of proteins named here, by UniProt entry; tags and fusion partners are left off.
UniProt P35365, whole entry: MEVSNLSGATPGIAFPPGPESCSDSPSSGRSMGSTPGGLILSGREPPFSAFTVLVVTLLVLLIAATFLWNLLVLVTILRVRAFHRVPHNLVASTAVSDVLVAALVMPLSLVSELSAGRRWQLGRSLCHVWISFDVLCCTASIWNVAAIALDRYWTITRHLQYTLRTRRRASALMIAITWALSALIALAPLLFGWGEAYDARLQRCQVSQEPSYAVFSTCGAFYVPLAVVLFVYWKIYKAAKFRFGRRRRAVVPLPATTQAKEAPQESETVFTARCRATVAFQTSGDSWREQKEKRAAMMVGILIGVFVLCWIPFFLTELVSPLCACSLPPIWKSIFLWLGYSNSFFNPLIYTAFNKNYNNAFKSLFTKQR
UniProt P32304, whole entry: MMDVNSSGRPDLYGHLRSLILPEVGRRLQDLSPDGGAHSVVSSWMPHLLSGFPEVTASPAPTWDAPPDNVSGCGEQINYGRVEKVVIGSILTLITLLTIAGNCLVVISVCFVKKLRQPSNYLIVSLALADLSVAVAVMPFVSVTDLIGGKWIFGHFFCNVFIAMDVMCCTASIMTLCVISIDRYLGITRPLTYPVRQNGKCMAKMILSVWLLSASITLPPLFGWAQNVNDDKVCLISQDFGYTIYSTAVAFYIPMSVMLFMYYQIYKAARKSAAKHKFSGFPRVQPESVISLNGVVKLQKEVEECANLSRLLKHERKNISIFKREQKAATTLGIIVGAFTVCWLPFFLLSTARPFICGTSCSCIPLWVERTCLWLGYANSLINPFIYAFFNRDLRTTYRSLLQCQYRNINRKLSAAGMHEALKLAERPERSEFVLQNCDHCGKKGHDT
UniProt P30994, whole entry: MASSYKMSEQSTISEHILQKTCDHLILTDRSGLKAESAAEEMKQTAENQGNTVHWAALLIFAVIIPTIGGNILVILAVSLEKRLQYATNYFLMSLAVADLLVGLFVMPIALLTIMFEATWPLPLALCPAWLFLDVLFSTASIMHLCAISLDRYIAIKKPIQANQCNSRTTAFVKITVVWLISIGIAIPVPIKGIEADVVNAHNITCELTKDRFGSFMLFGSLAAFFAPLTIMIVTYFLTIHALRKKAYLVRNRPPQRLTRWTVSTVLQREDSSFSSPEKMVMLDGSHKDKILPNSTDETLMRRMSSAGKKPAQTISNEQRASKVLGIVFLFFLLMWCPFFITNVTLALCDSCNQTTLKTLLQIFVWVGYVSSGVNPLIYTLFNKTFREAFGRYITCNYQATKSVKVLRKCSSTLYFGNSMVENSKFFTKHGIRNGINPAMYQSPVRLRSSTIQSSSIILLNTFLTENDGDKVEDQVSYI
UniProt P28222, whole entry: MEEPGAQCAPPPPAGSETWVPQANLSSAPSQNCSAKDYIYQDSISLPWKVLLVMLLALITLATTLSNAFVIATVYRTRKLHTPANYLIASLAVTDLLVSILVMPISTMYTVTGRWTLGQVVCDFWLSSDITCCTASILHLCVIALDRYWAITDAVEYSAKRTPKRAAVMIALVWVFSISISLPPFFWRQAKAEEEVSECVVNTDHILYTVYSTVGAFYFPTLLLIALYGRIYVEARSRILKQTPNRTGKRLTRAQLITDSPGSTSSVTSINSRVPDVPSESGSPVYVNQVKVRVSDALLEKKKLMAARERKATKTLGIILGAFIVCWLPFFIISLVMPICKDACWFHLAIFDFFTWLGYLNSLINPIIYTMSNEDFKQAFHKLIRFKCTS

[2] = target: 5-hydroxytryptamine receptor 5B (Rattus norvegicus, UniProt P35365)
[3] = target: T2, 5-hydroxytryptamine receptor 2C (Rattus norvegicus, UniProt P08909)
T2 sequence (P08909 whole entry): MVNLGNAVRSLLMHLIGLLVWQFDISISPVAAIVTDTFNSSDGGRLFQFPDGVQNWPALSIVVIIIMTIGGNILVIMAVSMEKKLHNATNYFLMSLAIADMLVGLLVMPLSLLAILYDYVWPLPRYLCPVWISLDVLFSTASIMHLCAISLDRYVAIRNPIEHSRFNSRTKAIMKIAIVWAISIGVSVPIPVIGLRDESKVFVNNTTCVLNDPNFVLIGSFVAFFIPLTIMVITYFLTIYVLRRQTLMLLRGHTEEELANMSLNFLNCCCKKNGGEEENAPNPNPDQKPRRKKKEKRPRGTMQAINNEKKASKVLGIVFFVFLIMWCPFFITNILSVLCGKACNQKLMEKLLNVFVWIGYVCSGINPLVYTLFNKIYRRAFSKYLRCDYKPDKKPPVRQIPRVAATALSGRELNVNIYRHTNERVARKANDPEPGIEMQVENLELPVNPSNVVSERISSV

[4] = target: 5-hydroxytryptamine receptor 7 (Mus musculus, UniProt P32304)
[5] = target: 5-hydroxytryptamine receptor 2B (Rattus norvegicus, UniProt P30994)
[6] = target: 5-hydroxytryptamine receptor 1B (Homo sapiens, UniProt P28222)

With `CNS(=O)(=O)Cc1ccc2[nH]cc(CCN(C)C)c2c1` [Sumax] the Ki [1] was 64.6 nM.

Work on `NCCc1c[nH]c2ccc(O)cc12` [[3H]-5-HT] yielded a Ki [2] of 1320 nM.

In the case of `COc1cc(CC(C)N)c(OC)cc1Br` (stereo not drawn) [2-(4-Bromo-2,5-dimethoxy-phenyl)-1-methyl-ethylamine((-)-DOB)], the Ki [3] is reported as 3.01 nM.

`CSc1ccc2c(c1)C(N1CCN(C)CC1)Cc1ccccc1S2` (configuration not stated) [methanesulfonic acid;1-methyl-4-(3-methylsulfanyl-5,6-dihydrobenzo[b][1]benzothiepin-5-yl)piperazine] gave a Ki [4] of 6.3 nM.

With `Cc1nc2sccn2c(=O)c1CCN1CCC(=C(c2ccc(F)cc2)c2ccc(F)cc2)CC1` the Ki [5] was 5.12 nM.

With `CC(C)NC[C@H](O)COc1cccc2ccccc12` [Propanolol,(+/-)] the Ki [6] was 56.2 nM.

`CN1C[C@@H](NS(=O)(=O)N(C)C)C[C@@H]2c3cccc4c3c(cn4C)C[C@H]21` [MESULERGINE] gave a Ki [5] of 36.3 nM.

From BindingDB's records for doi:10.1016/0028-3908(94)90059-0 (University of Alberta, 1994)
